{
  "source": "patent US10022453B2",
  "about": "(BAYER PHARMA AKTIENGESELLSCHAFT, priority 2013, dated 2018)",
  "system": "Caco-2 cells",
  "test": "Cell permeability, flux assay using Caco-2 cells",
  "conditions": "Caco-2, 2 hours",
  "data": [
    {"smiles": "CC(C)(C)[C@H](c1cc(-c2cc(F)ccc2F)cn1Cc1ccccc1)N(CCCN)C(=O)CO", "note": "[Example 98, N-(3-aminopropyl)-N-{(1R)-1-[1-benzyl-4-(2,5-difluorophenyl)-1H-pyrrol-2-yl]-2,2-dimethylpropyl}-2-hydroxyacetamide]", "values": [
      {"measurement": "Papp (B-A)", "result": 21.3, "unit": "×10⁻⁶ cm/s"}
    ]}
  ]
}
